Tested on: Hsc70
Assay: Hsc70 immunoblot of IB3-1 whole cell lysates
Settings: IB3-1 cells, 37° C., 2 days; butyrate 1 mM, glycerol 1 M, phenylacetate 1 mM, G418 0.2 mg/ml

CCCC(=O)O [butyrate, butyric acid]
Hsc70 immunoreactivity: reduction
